Results as given in paper PMC10901892 (Scientific Reports, 2024).
This is a selection: effects in other tests are not listed, and their absence says nothing.

Key:
[1] = cited from earlier work
[2] = tested on: isolated mouse liver mitochondria; settings: succinate, oligomycin A

Q: With `O=[N+]([O-])c1cc([N+](=O)[O-])c(O)c([N+](=O)[O-])c1` as the compound, how does the pKa of the phenolic hydroxy group [1] read?
A: 0.25

Q: And the “uncoupling activity (in words)” value [2]?
A: no significant uncoupling activity
